From patent publication US20150273057A1, “Combination” (GLAXOSMITHKLINE LLC, priority 2012, published 2015)

How the values were obtained:
Test in all cases: Cell growth inhibition assay (Cell Titer Glo, 7 days)
Assay type in all cases: cell-based, Human
[1] = tested on: RKO; details: RKO BRAF V600E mutant CRC line, relative to vehicle (DMSO)
Protocol: (§1) Human colon tumor lines, Colo-205, HT-29, RKO, SW1417, LS411N and human melanoma line A375 were from ATCC. All lines were cultured in RPMI 1640 medium containing 10% fetal bovine serum (FBS).
(§2) All cells were cultured for a minimum of 72 hours prior to cell plating. Cells were assayed in a 96-well tissue culture plate (NUNC 136102) of RPMI medium containing 10% FBS for all cells at 500 cells per well. Approximately 24 hours after plating, cells were exposed to ten, three-fold serial dilutions of Compound B or the combination of Compound B and an EGFR inhibitor, as used herein cetuximab or erlotinib, at a constant molar to molar ratio of 10:1, with or without the addition of 3 nM of Compound A. Cells were incubated in the presence of compounds for 7 days. ATP levels were determined by adding Cell Titer Glo® (Promega) according to the manufacturer's protocol. Briefly, Cell Titer Glo0 was added to each plate, incubated for 30 minutes then luminescent signal was read on the SpectraMax L plate reader with a 0.5 sec integration time.
(§3) Inhibition of cell growth was estimated after treatment with compound or combination of compounds for 7 days and comparing the signal to cells treated with vehicle (DMSO). Cell growth was calculated relative to vehicle (DMSO) treated control wells.

[2] = tested on: Colo-205; details: Colo-205 BRAF V600E mutant CRC line, relative to vehicle (DMSO)
Protocol: as §1, §2, §3

[3] = tested on: LS411N; details: LS411N BRAF V600E mutant CRC line, relative to vehicle (DMSO)
Protocol: as §1, §2, §3

[4] = tested on: A375; details: A375 melanoma line, relative to vehicle (DMSO)
Protocol: as §1, §2, §3

[5] = tested on: HT-29; details: HT-29 BRAF V600E mutant CRC line, relative to vehicle (DMSO)
Protocol: as §1, §2, §3

[6] = tested on: SW1417; details: SW1417 BRAF V600E mutant CRC line, relative to vehicle (DMSO)
Protocol: as §1, §2, §3

Measured: cell growth inhibition, agent alone

Cetuximab: monoclonal antibody binding EGFR; Fv regions of 225 murine antibody with human IgG1 heavy and kappa light chain constant regions
inactive: all assays above
